What is called IC50 is the concentration at which inhibition is half-maximal.

By UniProt entry, the sequences of proteins in these tests, tags left out.
UniProt P23975, whole entry: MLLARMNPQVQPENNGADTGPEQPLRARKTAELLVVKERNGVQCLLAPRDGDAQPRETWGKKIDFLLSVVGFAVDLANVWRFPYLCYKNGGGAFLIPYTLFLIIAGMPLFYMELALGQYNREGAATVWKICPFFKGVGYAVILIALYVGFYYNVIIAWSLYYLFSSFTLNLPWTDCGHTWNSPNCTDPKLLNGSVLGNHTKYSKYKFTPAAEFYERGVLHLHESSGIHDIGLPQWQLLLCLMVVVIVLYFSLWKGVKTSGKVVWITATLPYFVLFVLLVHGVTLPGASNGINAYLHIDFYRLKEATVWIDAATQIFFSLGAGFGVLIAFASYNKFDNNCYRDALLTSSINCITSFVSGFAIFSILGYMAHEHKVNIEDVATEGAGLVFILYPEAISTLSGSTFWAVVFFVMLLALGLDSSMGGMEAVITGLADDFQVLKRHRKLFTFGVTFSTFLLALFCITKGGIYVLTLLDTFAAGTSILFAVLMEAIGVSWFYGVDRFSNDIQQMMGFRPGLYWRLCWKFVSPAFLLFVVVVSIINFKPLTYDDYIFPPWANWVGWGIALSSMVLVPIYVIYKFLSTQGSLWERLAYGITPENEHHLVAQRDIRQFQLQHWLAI
UniProt P31645, whole entry: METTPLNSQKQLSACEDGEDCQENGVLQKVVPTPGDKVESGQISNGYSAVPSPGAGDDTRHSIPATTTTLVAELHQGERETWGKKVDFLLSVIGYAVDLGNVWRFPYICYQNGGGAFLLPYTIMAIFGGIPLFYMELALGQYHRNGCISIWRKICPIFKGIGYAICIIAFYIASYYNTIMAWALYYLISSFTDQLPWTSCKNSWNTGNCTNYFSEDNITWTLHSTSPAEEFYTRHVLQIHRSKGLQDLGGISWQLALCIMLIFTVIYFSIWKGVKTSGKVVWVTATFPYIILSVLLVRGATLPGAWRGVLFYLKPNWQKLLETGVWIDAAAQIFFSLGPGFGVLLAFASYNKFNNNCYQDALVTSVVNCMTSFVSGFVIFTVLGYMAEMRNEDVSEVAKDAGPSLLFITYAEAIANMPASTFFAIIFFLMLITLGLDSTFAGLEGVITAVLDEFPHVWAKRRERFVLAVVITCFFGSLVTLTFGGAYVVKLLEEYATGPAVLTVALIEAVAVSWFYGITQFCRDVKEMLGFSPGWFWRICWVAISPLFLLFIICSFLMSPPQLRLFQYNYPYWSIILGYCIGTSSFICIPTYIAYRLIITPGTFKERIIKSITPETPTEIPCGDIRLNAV
UniProt Q01959, whole entry: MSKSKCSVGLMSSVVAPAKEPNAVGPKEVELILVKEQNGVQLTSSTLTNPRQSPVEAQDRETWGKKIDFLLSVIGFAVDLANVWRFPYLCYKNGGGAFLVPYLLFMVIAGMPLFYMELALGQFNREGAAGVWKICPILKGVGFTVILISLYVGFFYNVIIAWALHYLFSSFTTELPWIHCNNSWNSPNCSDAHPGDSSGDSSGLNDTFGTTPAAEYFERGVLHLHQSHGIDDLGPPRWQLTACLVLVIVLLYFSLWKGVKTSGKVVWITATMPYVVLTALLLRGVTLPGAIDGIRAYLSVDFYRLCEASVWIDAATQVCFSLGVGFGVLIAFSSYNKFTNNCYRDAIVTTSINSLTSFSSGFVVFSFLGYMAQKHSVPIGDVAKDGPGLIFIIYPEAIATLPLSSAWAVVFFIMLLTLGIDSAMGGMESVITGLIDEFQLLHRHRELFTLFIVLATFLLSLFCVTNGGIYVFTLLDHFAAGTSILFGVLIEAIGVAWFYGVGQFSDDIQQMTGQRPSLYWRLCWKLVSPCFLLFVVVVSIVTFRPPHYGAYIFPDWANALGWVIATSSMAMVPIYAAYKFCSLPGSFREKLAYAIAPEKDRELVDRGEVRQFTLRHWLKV

The structures appear in SMILES notation. Like-named read-outs stand apart in the source and are kept apart here.

The source of these data is EP1976513B1 (priority 2006, dated 2007).

Common to all, as to experiment: cell-based
In assay [1] the target is human norepinephrine reuptake transporter (Homo sapiens, UniProt P23975).
In assay [2] the target is human serotonin reuptake transporter (Homo sapiens, UniProt P31645). The conditions noted are these: Human IC50 (nM) hSERT.
The target of assay [3] is T1, human dopamine reuptake transporter (Homo sapiens, UniProt Q01959).
T1 construct: expressed in transfected cells; host or cells: CHO-K1 or HEK293
The conditions noted are these: Human IC50 (nM) hDAT.

In assay [1] (Human IC50 (nM) hNET), `CNC(C)C1(c2ccc(OC(F)(F)F)cc2)CCCCC1` (single isomer, unassigned) [64 E1, N-methyl-1-(1-(4-(trifluoromethoxy)phenyl)cyclohexyl)ethanamine] returned an IC50 of 2800 nM.

For `CN(C)CC1(c2ccc3ccccc3c2)CCC(O)CC1` (centres unmarked) [Compound 229, 4-((dimethylamino)methyl)-4-(naphthalen-2-yl)cyclohexanol], in assay [1] (read-out: Human IC50 (nM) hNET), the IC50 stood at 33 nM.

Compound `CNC(C)C1(c2cccc3ccccc23)CCCCC1` (single isomer, unassigned) [59 E2, N-methyl-1-(1-(naphthalen-1-yl)cyclohexyl)ethanamine] showed an IC50 in assay [1] (Human IC50 (nM) hNET) of 2200 nM.

In the case of `CNC(C)C1(c2ccc(OC(F)(F)F)cc2)CCCCC1` (single isomer, unassigned) [64 E2, N-methyl-1-(1-(4-(trifluoromethoxy)phenyl)cyclohexyl)ethanamine], half-maximal inhibition in assay [1] (Human IC50 (nM) hNET) (IC50) required 2650 nM.

As for `CNC(C)C1(c2cccc3ccccc23)CCCCC1` (single isomer, unassigned) [59 E1, N-methyl-1-(1-(naphthalen-1-yl)cyclohexyl)ethanamine], it took 486 nM to reach half-maximal inhibition in assay [1] (Human IC50 (nM) hNET) (IC50).

For `CNCC1(c2ccc3ccccc3c2)CCC(C)(O)CC1` (centres unmarked) [Compound 222, 1-methyl-4-((methylamino)methyl)-4-(naphthalen-2-yl)-cyclohexanol], the IC50 in assay [1] (read-out: Human IC50 (nM) hNET) turned out to be 5350 nM.

`CC(C)CC(N)C1(c2ccc(Cl)c(Cl)c2)CCCCC1` (racemic) [Compound 3, 1-(1-(3,4-dichlorophenyl)cyclohexyl)-3-methylbutan-1-amine]: the IC50 in assay [1] (Human IC50 (nM) hNET) was 888 nM.

Turning to `CN(C)CC1(c2ccc3ccccc3c2)CCC(O)CC1` (centres unmarked) [Compound 228, 4-((dimethylamino)methyl)-4-(naphthalen-2-yl)cyclohexanol], the IC50 in assay [1] (read-out: Human IC50 (nM) hNET) is 387 nM.

Take `CN(C)CC1(c2ccc(Cl)c(Cl)c2)CCCC(F)(F)C1` (single isomer, unassigned) [206 E2, 1-(1-(3,4-dichlorophenyl)-3,3-difluorocyclohexyl)-N,N-dimethylmethanamine]: the IC50 is 306 nM in assay [2] and 7 nM in assay [1] (Human IC50 (nM) hNET).

As to `CNCC1(c2ccc3ccccc3c2)CCC(C)(O)CC1` (centres unmarked) [Compound 223, 1-methyl-4-((methylamino)methyl)-4-(naphthalen-2-yl)cyclohexanol], the IC50 in assay [1] (read-out: Human IC50 (nM) hNET) amounted to 145 nM.

Take `CC(C)CC(N)C1(c2ccc(Cl)cc2)CCCCC1` (single isomer, unassigned) [21 E1, 1-(1-(4-chlorophenyl)cyclohexyl)-3-methylbutan-1-amine]: in assay [3], the IC50 was 234 nM.

Consider `CC(C)CC(N(C)C)C1(c2ccc(Cl)c(Cl)c2)CCCCC1` (racemic) [Compound 46, 1-(1-(3,4-dichlorophenyl)cyclohexyl)-N,N,3-trimethylbutan-1-amine], for which the results for the IC50 in assay [2] and in assay [3] were more than 10000 nM and 349 nM, respectively.

Take `CNC(CC(C)C)C1(c2ccc(Cl)c(Cl)c2)CCCCC1` (racemic) [Compound 45, 1-(1-(3,4-dichlorophenyl)cyclohexyl)-N,3-dimethylbutan-1-amine]: it took 5940 nM to reach half-maximal inhibition in assay [2] (IC50).

Take `CNC(C(C)C)C1(c2ccc(Cl)cc2)CCCCC1` (racemic) [Compound 54, 1-(1-(4-chlorophenyl)cyclohexyl)-N,2-dimethylpropan-1-amine]: the IC50 in assay [1] (recombinant human norepinephrine transporter (NET), read-out: Human IC50 (nM) hNET) worked out at 857 nM.

In assay [2], `CC(N(C)C)C1(c2ccc3ccccc3c2)CCCCC1` (racemic) [Compound 55, N,N-dimethyl-1-(1-(naphthalen-2-yl)cyclohexyl)ethanamine] came in with an IC50 of less than 1 nM.

`CNCC1(c2ccc(Cl)c(Cl)c2)CCCC(F)(F)C1` (single isomer, unassigned) [205 E1, 1-(1-(3,4-dichlorophenyl)-3,3-difluorocyclohexyl)-N-methylmethanamine] came in with an IC50 in assay [3] of 800 nM.

For the compound `CC(C)C(N)C1(c2ccc(Cl)cc2)CCCCC1` (racemic) [Compound 14, 1-(1-(4-chlorophenyl)cyclohexyl)-2-methylpropan-1-amine], in assay [2], the IC50 is 2950 nM.

Compound `CC(N)C1(c2ccc(-c3ccccc3)cc2)CCCCC1` (racemic) [Compound 7, 1-(1-(biphenyl-4-yl)cyclohexyl)ethanamine] registered an IC50 in assay [3] of 527 nM.
